Earlier results as cited in US11285148B1 (King Abdulaziz University, priority 2021, dated 2022).

## fluorescein isothiocyanate [FITC]
  Solubility in water: less than 0.1 mg/ml
